Measurements taken from ChEMBL document CHEMBL5032516, “Synthesis and structural characterization of a monocarboxylic inhibitor for GRB2 SH2 domain” (Bioorg Med Chem Lett, 2021).

Chains of the proteins cited; added tags and fusions are not shown.
UniProt P62993, whole entry, looked up: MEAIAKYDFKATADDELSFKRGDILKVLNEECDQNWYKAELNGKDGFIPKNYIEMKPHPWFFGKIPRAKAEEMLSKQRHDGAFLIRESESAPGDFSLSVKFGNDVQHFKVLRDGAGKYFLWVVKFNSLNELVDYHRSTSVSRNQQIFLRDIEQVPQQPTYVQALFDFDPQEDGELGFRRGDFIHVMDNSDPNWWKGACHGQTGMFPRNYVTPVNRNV

Molecular target: Growth factor receptor-bound protein 2 (Homo sapiens, UniProt P62993)

Structure (SMILES)	ΔTm
NC(=O)C[C@@H]1NC(=O)C2(CCCCC2)NC(=O)C[C@@H](c2ccc(CP(=O)(O)O)cc2)/C=C/C[C@@H](Cc2cccc3ccccc23)CNC1=O	77 °C
NC(=O)C[C@@H]1NC(=O)C2(CCCCC2)NC(=O)C[C@@H](c2ccc(CC(=O)O)cc2)/C=C/C[C@@H](Cc2cccc3ccccc23)CNC1=O	69 °C
